IC50 data for twelve compounds are collected here from patent US9221809B2 (dated 2015).

The chains behind the UniProt entries cited, without tags or fusion partners.
UniProt Q9NWZ3, whole entry: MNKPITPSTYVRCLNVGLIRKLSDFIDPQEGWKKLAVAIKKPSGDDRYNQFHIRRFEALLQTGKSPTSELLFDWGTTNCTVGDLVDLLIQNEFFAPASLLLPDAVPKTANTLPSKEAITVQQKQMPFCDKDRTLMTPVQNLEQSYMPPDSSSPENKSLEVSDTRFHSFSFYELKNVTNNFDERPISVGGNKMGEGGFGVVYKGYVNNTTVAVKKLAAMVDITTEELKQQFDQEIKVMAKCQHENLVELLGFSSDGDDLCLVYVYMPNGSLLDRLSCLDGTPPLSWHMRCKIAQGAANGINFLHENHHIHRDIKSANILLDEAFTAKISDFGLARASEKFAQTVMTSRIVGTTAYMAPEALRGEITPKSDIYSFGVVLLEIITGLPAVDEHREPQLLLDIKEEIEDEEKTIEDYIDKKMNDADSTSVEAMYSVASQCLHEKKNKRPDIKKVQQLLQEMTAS

The target of the test is IRAK4 (Homo sapiens (Human), UniProt Q9NWZ3). In words: IRAK4 kinase activity, IMAP fluorescence polarization assay. It is filed as biochemical. Conditions: read-out: IRAK4 IC50; 100 μM ATP, 0.5 nM GST tagged IRAK4. (Polarisation of emitted light reports the rotation of a fluorescent probe.)

Where a name gives a salt, the structure may show the parent alone.

For `O=c1[nH]c(N2CCOCC2)nc(N[C@@H]2C[C@H](CO)[C@@H](O)[C@H]2O)c1-c1nc2ccccc2s1` [Example 24, 5-(Benzo[d]thiazol-2-yl)-6-(((1R,2S,3R,4R)-2,3-dihydroxy-4-(hydroxymethyl)cyclopentyl)amino)-2-morpholinopyrimidin-4(3H)-one.HCl], the IC50 was found to be 11 nM. On to `O=c1[nH]c(N2CCCCC2)nc(N[C@@H]2C[C@H](CO)[C@@H](O)[C@H]2O)c1-c1nc2ccccc2s1` [Example 26, 5-(Benzo[d]thiazol-2-yl)-6-(((1R,2S,3R,4R)-2,3-dihydroxy-4-(hydroxymethyl)cyclopentyl)amino)-2-(piperidin-1-yl)pyrimidin-4(3H)-one.HCl], for which the IC50 worked out at 43 nM. In the case of `CN1CCN(c2nc(N[C@@H]3C[C@H](CO)[C@@H](O)[C@H]3O)c(-c3nc4ccccc4s3)c(=O)[nH]2)CC1` [Example 28, 5-(Benzo[d]thiazol-2-yl)-6-(((1R,2S,3R,4R)-2,3-dihydroxy-4-(hydroxymethyl)cyclopentyl)amino)-2-(4-methylpiperazin-1-yl)pyrimidin-4(3H)-one.HCl], the IC50 was determined as 43 nM. Next, `Cc1cc(Nc2nc(N[C@@H]3C[C@H](CO)[C@@H](O)[C@H]3O)c(-c3nc4ccccc4s3)c(=O)[nH]2)cc(C)n1` [Example 50, 5-(Benzo[d]thiazol-2-yl)-6-(((1R,2S,3R,4R)-2,3-dihydroxy-4-(hydroxymethyl)cyclopentyl)amino)-2-((2,6-dimethylpyridin-4-yl)amino)pyrimidin-4(3H)-one.HCl]: 73 nM; `Cc1nc(N[C@@H]2C[C@H](CO)[C@@H](O)[C@H]2O)c(-c2nc3ccccc3s2)c(=O)[nH]1` [Example 62, 5-(Benzo[d]thiazol-2-yl)-6-((1R,2S,3R,4R)-2,3-dihydroxy-4-(hydroxymethyl)cyclopentylamino)-2-methylpyrimidin-4(3H)-one.HCl]: 635 nM; `O=c1[nH]c(N2CCOCC2)nc(N[C@@H]2CCCNC2)c1-c1nc2ccccc2s1` [Example 83, (R)-5-(Benzo[d]thiazol-2-yl)-2-morpholino-6-(piperidin-3-ylamino)pyrimidin-4(3H)-one]: 19 nM.

As to `O=c1[nH]c(N2CCOCC2)nc(N[C@H]2CCCNC2)c1-c1nc2ccccc2s1` [Example 84, (S)-5-(Benzo[d]thiazol-2-yl)-2-morpholino-6-(piperidin-3-ylamino)pyrimidin-4(3H)-one.HCl], the IC50 is 255 nM. For `O=c1[nH]c(N2CCOCC2)nc(NC2CCNCC2)c1-c1nc2ccccc2s1` [Example 88, 5-(Benzo[d]thiazol-2-yl)-2-morpholino-6-(piperidin-4-ylamino)pyrimidin-4(3H)-one HCl] the value was 121 nM; for `O=C1CC[C@@H](Nc2nc(N3CCOCC3)[nH]c(=O)c2-c2nc3ccccc3s2)CN1` [Example 89, (R)-5-(Benzo[d]thiazol-2-yl)-2-morpholino-6-(6-oxopiperidin-3-ylamino)pyrimidin-4(3H)-one.HCl], 450 nM; for `O=c1[nH]c(N2CCOCC2)nc(NC2CCCC(O)C2)c1-c1nc2ccccc2s1` (stereo not drawn) [Example 96, 5-(Benzo[d]thiazol-2-yl)-6-(3-hydroxycyclohexylamino)-2-morpholinopyrimidin-4(3H)-one.HCl], 1800 nM. `O=c1[nH]c(N2CCOCC2)nc(NC2CCCNC2)c1-c1nc2ccccc2s1` (stereo not drawn) [Example 106, 5-(benzo[d]thiazol-2-yl)-2-morpholino-6-(piperidin-3-ylamino)pyrimidin-4(3H)-one]: the IC50 was determined as 244 nM. As to `O=c1[nH]c(N2CCOCC2)nc(N[C@@H]2CCC[C@@H](O)C2)c1-c1nc2ccccc2s1` [Example 108, 5-(benzo[d]thiazol-2-yl)-6-(((1R,3R)-3-hydroxycyclohexyl)amino)-2-morpholinopyrimidin-4(3H)-one.HCl], the IC50 was 454 nM.

What is called IC50 is the concentration that inhibits the measured activity by half.
